System: B. trispora spores
Test: Mutation of B. trispora spores with mutagenic agents: mortality rate
Assay type: cell-based, Blakeslea trispora
Details: 10^6 spores/ml, 250 μg/ml of NTG, 0.1 M sodium citrate buffer pH 5.0, room temperature, 30 minutes

SMILES: CN(N=O)C(=N)N[N+](=O)[O-]
- mortality rates: around 95%
